Results as given in PubChem BioAssay AID950 (NMMLSC, 2007).
Only a part is listed here, and it is no random draw. The source made the active and inactive calls. Cut-off read from the data, not from the text of the source: active = inhibition above about 40%; inconclusive = no clear call, values can overlap the other calls; inactive = below that.

The chains behind the UniProt entries cited, without tags or fusion partners.
UniProt P10415, whole entry, looked up: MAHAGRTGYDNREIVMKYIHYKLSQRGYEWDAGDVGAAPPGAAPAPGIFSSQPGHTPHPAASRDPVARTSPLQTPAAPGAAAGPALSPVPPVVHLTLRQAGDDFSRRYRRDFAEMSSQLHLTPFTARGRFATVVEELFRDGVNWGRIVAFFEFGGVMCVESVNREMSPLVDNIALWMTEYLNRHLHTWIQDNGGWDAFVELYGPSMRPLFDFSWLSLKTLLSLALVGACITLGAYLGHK

What follows are compounds tested against Apoptosis regulator Bcl-2 (Homo sapiens) (UniProt P10415) (assay: Bcl-2 and Bim peptide interaction disruptors – biochemical, multiplexed, human Bcl-2 family, primary screen (AID 950;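 note: 0% = no compound wells with probe peptide and 100% = reference peptide inhibitor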)). Conditions: Bead-based flow cytometry, Bim peptide-Bcl-2 binding; at 10 µM; hits give high values.

SMILES | inhibition
Cc1cc(SC(NC=O)C(Cl)(Cl)Cl)ncn1 (centres undefined) | inactive: -6%
O=P(Nc1ccccn1)(c1cccc2ccccc12)c1cccc2ccccc12 | inactive: -6%
Cc1cc(SC(NC(=O)c2ccccc2)C(Cl)(Cl)Cl)nc(C(C)C)n1 (centres undefined) | inactive: -3%
CCC(C)N(CC(C)C)C(=S)SC(NC(C)=O)C(Cl)(Cl)Cl (centres undefined) | inactive: 5%
COP1(=S)c2c(C)nn(CCC#N)c2N=C(c2ccc(F)cc2)N1C (centres undefined) | inactive: -9%
O=C(COc1ccccc1)OC1CN2CCC1CC2 (centres undefined) | inactive: 1%
COc1ccc(N/C(=N/P(=O)(N2CCOCC2)N2CCOCC2)N2CCOCC2)cc1 | inactive: 1%
Cc1c2c(nc3ccccc13)SC(C(Cl)Cl)C2 (centres undefined) | inactive: -4%
O=C(OC1CN2CCC1CC2)C12CC3CC(CC(C3)C1)C2 (centres undefined) | inactive: -9%
Cc1cc(=O)[nH]c(N[N+](=O)[O-])n1 | inactive: -2%
COc1ccc2nc(NP(=O)(c3ccccc3)c3ccccc3)sc2c1 | inactive: -2%
ClCCSc1nnc(-c2cccnc2)o1 | inactive: -5%
CC(C)NC(=O)NP(=O)(Oc1ccccc1)Oc1ccccc1 | inactive: -4%
CCN(CC)C(=S)SC(NC=O)C(Cl)(Cl)Cl (centres undefined) | inactive: -2%
O=[N+]([O-])c1cc([N+](=O)[O-])c(-c2ccn[nH]2)s1 | inactive: 0%
Cc1ccc2nc3c(c(C)c2c1)CC(C(Cl)Cl)S3 (centres undefined) | inactive: -6%
CCOP1(=S)c2c(C)nn(CCC#N)c2N=C(c2ccc(F)cc2)N1C (centres undefined) | inactive: -9%
O=[N+]([O-])c1ccc2c(c1)nnn2O | inactive: -2%
CCOP1(=S)c2c(C)nn(CCC#N)c2N=C(c2ccccc2F)N1C (centres undefined) | inactive: -9%
O=P(Nc1nccs1)(Oc1ccccc1)Oc1ccccc1 | inactive: 1%
O=P(Nc1nccs1)(c1ccccc1)c1nc2ccccc2s1 (centres undefined) | inactive: -11%
Cc1ccc(NCCc2c([N+](=O)[O-])cc([N+](=O)[O-])cc2[N+](=O)[O-])cc1 | inactive: 2%
COc1cc(C2NCCC3(OCCO3)C2(C)C)cc(OC)c1OC (centres undefined) | inactive: 1%
CCOP(=O)(Nc1cccc2ccccc12)OCC | inactive: -4%
COc1cc(C(=O)NCC2(N3CCOCC3)CCCCC2)cc(Cl)c1OC(C)C | inactive: -3%
Cc1cccc(OCC(=O)OC2CN3CCC2CC3)c1 (centres undefined) | inactive: 0%
CN(C(=O)Cc1ccc(Cl)c(Cl)c1)[C@@H]1CCCC[C@H]1N1CCCC1 | inactive: -2%

SMILES | inhibition
CC(C)/C=N\N=C(\N)N[N+](=O)[O-] | inactive: -2%
O=P1(Nc2ccccn2)COc2ccccc2OC1 | inactive: -8%
Clc1n[nH]nc1-c1nn[nH][15n]1 | inactive: -8%
O=P1(Nc2ncccn2)COc2ccccc2OC1 | inactive: -7%
Cc1ccc(OCC(=O)OC2CN3CCC2CC3)cc1 (centres undefined) | inactive: -6%
O=P1(Nc2ccc(Br)cn2)COc2ccccc2OC1 | inactive: -4%
Cc1nn(-c2ccccc2)c2c1P(=O)(N1CCOCC1)N(C)C(c1ccccc1)=N2 (centres undefined) | inactive: 0%
CC1CCC(C(C)C)C(OP(=O)(Nc2ccccn2)c2ccccc2)C1 (centres undefined) | inactive: 1%
CN(C)C1(CNC(=O)c2ccc(S(C)(=O)=O)cc2)CCCCC1 | inactive: 0%
CC(=O)NC(SC(=S)N(C)C)C(Cl)(Cl)Cl (centres undefined) | inactive: -1%
O=C(OC1CN2CCC1CC2)c1cccc(Cl)c1 (centres undefined) | inactive: 2%
C(Cc1nn[nH]n1)Cc1nn[nH]n1 | inactive: -1%
O=P(Nc1ccccn1)(c1ccc(Br)cc1)c1ccc(Br)cc1 | inactive: -4%
O=P(Nc1nccs1)(c1ccccc1)c1ccccc1 | inactive: -6%
CC(C)C(=O)NC(Sc1ccccc1)C(Cl)(Cl)Cl (centres undefined) | inactive: -8%
c1nnnn1CCn1cnnn1 | inactive: -5%
CC(=O)Nc1ccc(Oc2c([N+](=O)[O-])cc([N+](=O)[O-])cc2[N+](=O)[O-])cc1 | inactive: -1%
O=P1(Nc2nc3ccc(Cl)cc3s2)COc2ccccc2O1 (centres undefined) | inactive: -3%
CCOc1ccc(C2=NCC(CBr)S2)cc1 (centres undefined) | inactive: -1%
CC(C)(C)C(=O)NC(Sc1ccccc1)C(Cl)(Cl)Cl (centres undefined) | inactive: 0%
CCC(=O)N1C2C3N(C(=O)CC)C1C1N(C(=O)CC)C(C(N1C(=O)CC)N3C(=O)CC)N2C(=O)CC | inactive: 7%
COC(=O)c1cc2c(s1)N=C(c1ccccc1)N(C)P2(=O)N1CCOCC1 (centres undefined) | inactive: -6%
CC(=O)NC(SC(=S)N(CC(C)C)CC(C)C)C(Cl)(Cl)Cl (centres undefined) | inactive: 1%
Cc1ccc(OP(=O)(Nc2ccccn2)Oc2ccc(C)cc2)cc1 | inactive: 0%
O=c1c2cc([N+](=O)[O-])ccc2[nH]c2c([N+](=O)[O-])cc([N+](=O)[O-])cc12 | inactive: -2%
c1ccc(-c2nn[nH]n2)c(-c2nn[nH]n2)c1 | inactive: -1%
CCOC(=O)NC(Sc1ccccc1)C(Cl)(Cl)Cl (centres undefined) | inactive: -2%

SMILES | inhibition
O=C(NC1CCS(=O)(=O)C1)NP(=S)(Oc1ccccc1)Oc1ccccc1 (centres undefined) | inactive: -10%
CCNC(=S)/N=C(\N)N[N+](=O)[O-] | inactive: -1%
CCN(N=Nc1nonc1N)c1nonc1N | inactive: -9%
Cc1cc(SC(NC(=O)c2ccc(F)cc2)C(Cl)(Cl)Cl)ncn1 (centres undefined) | inactive: -11%
CCOP(=O)(Nc1ccccc1)OCC | inactive: -1%
Oc1ccccc1CNc1ccccn1 | inactive: -11%
O=C(NC(Sc1ccncn1)C(Cl)(Cl)Cl)c1ccccc1 (centres undefined) | inactive: 0%
Cc1c2non([O-])c-2c(C)[n+](=O)[n+]1[O-] | inactive: -3%
CC(C)CC(=O)NC(Sc1ccc(Cl)cc1)C(Cl)(Cl)Cl (centres undefined) | inactive: 0%
Cc1ccc(N/C(=N/P(=O)(N2CCOCC2)N2CCOCC2)N2CCOCC2)cc1 | inactive: 0%
NC(=O)c1cc([N+](=O)[O-])cc([N+](=O)[O-])c1N | inactive: -2%
CN1CCCC(OC(=O)C(c2ccccc2)c2ccccc2)C1 (centres undefined) | inactive: 17%
Clc1ccc(Cl)c(NC2=NCC(CBr)S2)c1 (centres undefined) | inactive: -3%
COc1ccccc1OP(=O)(Nc1ccc(C)cn1)Oc1ccccc1OC | inactive: 2%
CCN(/C(=N/P(=O)(N1CCOCC1)N1CCOCC1)N1CCOCC1)c1ccc(OC)cc1 | inactive: 0%
CC1CCN(C(=O)Oc2c(Cl)cc(Cl)c3cccnc23)CC1 | inactive: -3%
CC(C)=N/N=C(\N)N[N+](=O)[O-] | inactive: -6%
CN(C)C(=O)OCCc1n(C)cc[n+]1C | inactive: -8%
COc1ccc(C2=NCC(CBr)S2)cc1 (centres undefined) | inactive: -4%
Cc1ccc(NP(=O)(Oc2ccccc2)Oc2ccccc2)nc1 | inactive: -3%
O=[N+]([O-])c1cc([N+](=O)[O-])c(CCNc2ccccc2)c([N+](=O)[O-])c1 | inactive: 0%
CCc1nc2c(n1)c1c(non1O)c1c2no[n+]1[O-] | inactive: 20%
CC(=O)N1C2C3N(C(C)=O)C1C1N(C(C)=O)C(C(N1C(C)=O)N3C(C)=O)N2C(C)=O | inactive: -3%
O=[N+]([O-])c1cccc2n[nH]nc12 | inactive: -10%
O=[N+]([O-])c1ncn(CCn2ncnc2[N+](=O)[O-])n1 | inactive: -2%
